Experimental data reported in article PMC8175350, “Drug repurposing screens identify chemical entities for the development of COVID-19 interventions” (Nature Communications, 2021).

Key:
in vitro = conditions: human, Calu-3 uninfected cytotoxicity CC50 GeoMean
[1] = Uninfected HeLa-ACE2 24 h live/dead cytotoxicity counter screen; conditions: human, uninfected HeLa-ACE2 cells

COc1ccc(C[C@H]2NC[C@H](O)[C@H]2OC(C)=O)cc1 [Anisomycin]
CC50 (in vitro): > 5980 nM
CC50 at 24 h ([1]; HeLa-ACE2 CC50, uninfected cells, Fig. 2b group): ≤ 3000 nM
CC50 at 24 h ([1]; HeLa-ACE2 uninfected cytotoxicity CC50 GeoMean, unrounded geometric mean): 189 nM
